The entries are a selection whose mix differs from that of the whole data set. The source made the active and inactive calls. Cut-off read from the data, not from the text of the source: active = inhibition mostly above about 23% (no sharp cut-off); inactive = mostly below about 18%.
Target: 5-hydroxytryptamine receptor 5A (Homo sapiens) (UniProt P47898)
Experiment: HTR5A inverse agonists in luminescence cell assay, primary screen, counter-screen for OPRM1-OPRD1 heterodimer inverse agonist project, full-deck HTS (AID 504634);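 note: 0% = cells with DMSO and 100% = no-cell wells with DMSO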
Settings: HTR5A cell line, inverse agonism, at 9.3 µM, active compounds read high

Sequences of proteins named here, by UniProt entry; tags and fusion partners are left off.
UniProt P47898, whole entry, looked up: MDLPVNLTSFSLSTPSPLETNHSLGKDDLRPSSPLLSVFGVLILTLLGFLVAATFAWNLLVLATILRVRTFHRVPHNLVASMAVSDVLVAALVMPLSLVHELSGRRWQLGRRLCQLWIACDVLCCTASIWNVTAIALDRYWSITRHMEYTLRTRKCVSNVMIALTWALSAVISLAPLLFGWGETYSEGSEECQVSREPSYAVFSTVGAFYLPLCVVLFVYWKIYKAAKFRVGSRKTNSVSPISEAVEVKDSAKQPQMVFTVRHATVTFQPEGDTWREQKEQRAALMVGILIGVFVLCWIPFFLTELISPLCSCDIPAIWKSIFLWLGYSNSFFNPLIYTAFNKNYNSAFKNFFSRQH

Structure (SMILES) | inhibition
CC1Cc2ccccc2N1C(=O)Cn1cnc2ccccc21 (stereo not given) | inactive: -43.7%
C[C@H](O)[C@@H]1C(=O)N2CCc3ccc(N4CCN(C)CC4)cc3[C@@H]2C[C@@H]1N(C)C(=O)c1ccc(C#N)cc1 | inactive: 0.51%
CSc1nc(N)nc2c1ncn2CC(=O)N1CCN(Cc2c(C)cc(C)cc2C)CC1 | inactive: -32.2%
COc1cccc(CNc2nc3ccccc3n2CCN2CCCCC2)c1OC | inactive: -29.5%
CCC(C)[C@H](NC(=O)N1CCn2c1nc1ccccc12)C(=O)NCC1CCCO1 (stereo not given in full) | inactive: 14.7%
O=C(OC1CN2CCC1CC2)c1cccc([N+](=O)[O-])c1 (stereo not given) | inactive: -0.07%
CCCCOc1ccccc1NC(=O)Cn1c(-c2nonc2N)nc2ccccc21 | inactive: -13.1%
CCc1cccc(C)c1N(C(=O)Cn1c(=O)[nH]c2ccccc21)C(C)COC (stereo not given) | inactive: -6.53%
COc1ccc(CCNC(=O)[C@H](CC(C)C)NC(=O)N2CCn3c2nc2ccccc23)cc1OC | inactive: -15.1%
O=C(c1ccccc1Cl)N1CCn2c1nc1ccccc12 | inactive: 9.77%
CCC(NC(=O)Cn1cnc2c(=O)n(C)c(=O)n(C)c21)c1ccccc1 (stereo not given) | inactive: 5.18%
O=C1Cn2c(nc3ccccc32)-c2ccccc2N1 | inactive: 11.1%
CCN(CC)C(=O)Cn1cnc2c1c(=O)n(C)c(=O)n2C | inactive: -0.88%
CC(C)N(C(=O)Cn1c(Cl)nc2ccccc21)C(C)C | inactive: 3.75%
CCOC(=O)c1ccc(NC(=O)C(C)(CCl)SC)cc1 (stereo not given) | inactive: -10.7%
Cc1ccc2c(c1)C1C[N+](C)(CC(=O)c3ccc(Cl)cc3Cl)CCC1N2C(=O)c1ccc(F)cc1 (stereo not given) | inactive: -14.5%
O=C(Cn1c(-c2cscn2)nc2ccccc21)Nc1cc(F)ccc1F | inactive: -3.52%
Cc1ccc2c(c1)C1CN(C)CCC1N2C(=O)COc1ccc(S(=O)(=O)N2CCOCC2)cc1 (stereo not given) | inactive: 17%
Cc1ccc(SCc2nc3ccccc3n2CC(=O)Nc2ccc(Cl)cc2)cc1 | inactive: 8.82%
CN1CCC2(CC1)Nc1nc(SCc3ccc(Cl)cc3)nn1C1=C2CN(C)CC1 | inactive: -8.06%
Cc1ccc2c(c1)C1CN(C)CCC1N2C(=S)Nc1cccnc1 (stereo not given) | inactive: 0.16%
N#CCC(=O)N/N=C\c1ccc(OC/C=C/c2ccccc2)cc1 | inactive: 0.77%
FC(F)(F)c1cccc(-n2nnnc2C2(N3CCOCC3)CCCCC2)c1 | inactive: 0.76%
CCOCCn1c(=O)c2c(nc3n2CCN3c2ccc(CC)cc2)n(C)c1=O | inactive: -1.36%
CC(C)NC(=O)Cn1c(SCC(=O)N2CCc3ccccc3C2)nc2ccccc21 | inactive: -8.64%
